Reference: US6177438A, “Morphinan derivatives and pharmaceutical use thereof” (priority 1993, dated 2001)

By UniProt entry, the sequences of proteins in these tests, tags left out. Where a name states a change or a piece, a line headed by the entry shows the natural chain unless it says otherwise.
UniProt P32300, whole entry, looked up: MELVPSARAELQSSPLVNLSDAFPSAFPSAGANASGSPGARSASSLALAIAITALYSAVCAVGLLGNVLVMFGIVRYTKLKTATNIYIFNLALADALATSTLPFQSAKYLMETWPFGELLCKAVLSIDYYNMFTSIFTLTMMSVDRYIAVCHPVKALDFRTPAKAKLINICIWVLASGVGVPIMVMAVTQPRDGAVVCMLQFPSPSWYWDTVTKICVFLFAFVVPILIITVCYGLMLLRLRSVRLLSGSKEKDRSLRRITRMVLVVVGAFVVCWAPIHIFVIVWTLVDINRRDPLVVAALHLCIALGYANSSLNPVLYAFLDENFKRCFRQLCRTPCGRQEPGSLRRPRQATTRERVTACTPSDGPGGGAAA

Tests used:
[1] = target: δ receptor (Mus musculus, UniProt P32300); conditions: mouse vas deferens, in words
[2] = test system: cultured nerve cells (cerebral cortex); conditions: 10 mM glutamic acid, 24 hours

CC(=O)N(C)[C@H]1CC[C@@]2(O)[C@H]3Cc4ccc(O)c5c4[C@@]2(CCN3CC2CC2)[C@H]1O5
receptor selectivity of agonist (δ) [1]: selective agonists for δ receptors | Protective action against cytotoxicity caused by glutamic acid (in words) [2]: clearly demonstrated action that protects nerve cells from cytotoxicity caused by glutamic acid | EC50 ([2]; read-out: ED50 (protection against glutamic acid toxicity), 37° C., LDH leakage): 7.6 µM
